Source: US20040266723A1, “Antiviral agents for treatment of Flaviviridae infections” (priority 2000, published 2004)

Test system: BVDV
Assay: BVDV real time RT-PCR antiviral assay in MDBK cells
Format: cell-based, Bovine viral diarrhea virus (BVDV), strain NADL
Conditions: dose-response, 24 hours post-infection
Method: As one illustration of this method, in the case of BVDV in MDBK cells, in a first step, viral RNA is isolated from 140 μL of the cell culture supernatant by means of a commercially available column (Viral RNA extraction kit, QiaGen, CA). The viral RNA is then eluted from the column to yield a total volume of 60 μL, and subsequently amplified with a quantitative RT-PCR protocol using a suitable primer for the BVDV NADL strain. A quenched fluorescent probe molecule is hybridized to the BVDV DNA, which then undergoes exonucleolytic degradation resulting in a detectable fluorescent signal. Therefore, the RT-PCR amplified DNA was detected in real time by monitoring the presence of fluorescence signals. The TaqMan probe molecule (5′ 6-fam-[…]-tamara 3′ [Sequence ID No. 7] and primers (sense: 5′-[…]-3′ [Sequence ID No. 8]; and antisense: 5′-[…]-3′ [Sequence ID No. 9]) were designed with the aid of the Primer Express software (PE-Applied Biosystems) to be complementary to the BVDV NADL NS5B region. A total of 10 μL of RNA was analyzed in a 50 μL RT-PCR mixture. Reagents and conditions used in quantitative PCR were purchased from PE-Applied Biosystems. The standard curve that was created using the undiluted inoculum virus ranged from 6000 plaque forming units (PFU) to 0.6 PFU per RT-PCR mixture. […]

COc1c(C)c2c(c(O)c1CCOP(=O)(O)CP(=O)(O)OC[C@H]1O[C@@H](n3cnc4c(N)ncnc43)C(O)[C@H]1O)C(=O)OC2 (stereo partly shown) [C2-MAD]
intracellular viral RNA reduction, relative effectiveness (FIG. 9): more effective than Tiazofurin
